# Laboratory results: patent publication US20030083271A1, “Topoisomerase I selective cytotoxic sugar derivatives of indolopyrrolocarbazoles” (priority 2001, published 2003)
# Sequences of proteins named here, by UniProt entry; tags and fusion partners are left off.
# UniProt P11387, whole entry: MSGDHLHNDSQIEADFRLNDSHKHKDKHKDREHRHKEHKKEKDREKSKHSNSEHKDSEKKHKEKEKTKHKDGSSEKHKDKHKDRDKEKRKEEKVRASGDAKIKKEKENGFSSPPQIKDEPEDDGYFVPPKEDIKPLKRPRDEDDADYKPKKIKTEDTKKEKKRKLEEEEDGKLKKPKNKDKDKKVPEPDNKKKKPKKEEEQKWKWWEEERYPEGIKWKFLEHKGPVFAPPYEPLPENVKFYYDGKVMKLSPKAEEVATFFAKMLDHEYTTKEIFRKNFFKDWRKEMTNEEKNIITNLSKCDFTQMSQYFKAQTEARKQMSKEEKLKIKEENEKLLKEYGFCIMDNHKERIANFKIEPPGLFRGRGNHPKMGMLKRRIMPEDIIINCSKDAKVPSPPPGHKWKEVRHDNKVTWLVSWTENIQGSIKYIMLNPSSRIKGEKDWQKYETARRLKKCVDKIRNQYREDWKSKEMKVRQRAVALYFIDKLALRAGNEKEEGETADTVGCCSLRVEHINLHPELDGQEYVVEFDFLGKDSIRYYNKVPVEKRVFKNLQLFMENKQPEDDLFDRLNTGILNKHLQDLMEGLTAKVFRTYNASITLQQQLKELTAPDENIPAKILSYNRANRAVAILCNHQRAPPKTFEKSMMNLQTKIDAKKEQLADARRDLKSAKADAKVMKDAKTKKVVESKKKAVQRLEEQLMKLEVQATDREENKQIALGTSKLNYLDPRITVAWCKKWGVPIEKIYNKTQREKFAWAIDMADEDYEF
# Key:
# [1] = system: P388 murine leukemia cells; experiment: In vitro cell-based cytotoxicity, parental P388 cells; details: read-out: P388 IC50, median cytotoxic concentration, 3 days continuous exposure
# Method: The proliferation inhibition activity against the murine P388 cell line was measured as follows. Evaluation of a soluble tetrazolium/formazan assay for cell growth and drug sensitivity in culture, using human and other tumor cell lines, was done according to the procedure described in Cancer Res. 1988, 48, 4827-4833. Cells were plated at 4000 cells/well in 96 well microtiter plates and 24 h later drugs were added and serially diluted. The cells were incubated at 37° C. for 72 h, at which time a tetrazolium dye, XTT, containing phenazine methosulfate was added. A dehydrogenase enzyme in live cells reduced the XTT to a form that absorbs light at 450 nm, which could be quantitated spectrophotometrically. The greater the absorbance the greater the number of live cells. The results are expressed as an IC50, which is the drug concentration required to inhibit cell proliferation (i.e., absorbance at 450 nm) to 50% of that of untreated control cells.
# (§1) Similarly, P338 murine leukemia cells were maintained in RPMI 1640 supplemented with 20% fetal bovine serum and 10 μM 2-mercaptoethanol. A camptothecin resistant subline, P388/CPT45, was selected for resistance to camptothecin and is over 1000-fold resistant to this compound (Woessner, et al. Oncol. Res. 1992, 4, 481-488).
# (§2) In vitro cytotoxicity was assessed in tissue culture cells by MTS (3-(4,5-dimethylthiazol-2-yl)-5-(3-carboxymethoxyphenyl)-2-(4-sulphenyl)-2H-tetrazolium, inner salt) assay (Riss and Moravec, Mol. Biol. Cell 1992, 3 (Suppl.), 184a). Cells were plated at 8,000 cell/well in 96 well microtiter plates and 24 hours later serial dilutions of the test compounds were made and added to the cells. The cells were incubated at 37° C. for 72 hours, at which time the tetrazolium dye, MTS at 333 μg/ml (final concentration), in combination with the electron coupling agent phenazine methosulfate at 25 μM (final concentration) was added. A dehydrogenase enzyme in live cells reduces the MTS to a form that absorbs light at 492 nm which can be quantitated spectrophotometrically. The greater the absorbance the greater the number of live cells. The results are expressed as an IC50, which is the drug concentration required to inhibit cell proliferation (i.e., absorbance at 492 nm) to 50% of that of untreated control cells.
# The cytotoxic activity for certain compounds of the present invention, in both parental P388 and the camptothecin-resistant P388/CPT45 cell lines are shown below in Table I.
# P388/CPT45 cells = experiment: Cytotoxicity in camptothecin-resistant P388/CPT45 cells relative to parental P388 (selectivity index R/S); details: IC50 P388/CPT45 cells divided by IC50 parental P388 cells
# Source text: The present invention includes fluoro sugar and other sugar derivatives of indolopyrrolocarbazoles of formula (I), as defined above. […] Most importantly, the instant invention describes topo I active compounds, related to compounds disclosed in WO 98/07433 and co-pending U.S. application, Ser. No. 08/914566 (both herein incorporated by reference), which display a surprising and unexpected selectivity index when evaluated for cytotoxicity in certain cell lines which express normal levels of topo I required for cell proliferation, compared with cell lines that are deficient in or underexpress topo I. Said “selectivity index” (R/S) was generated by dividing the cytotoxic IC50 of a particular compound against a camptothecin-resistant murine leukemia cell line, P388/CPT45, by the IC50 generated when using the parent P388 cell line. […] A level of selectivity was judged to be advantageous and beneficial in, for example, modulating potential undesirable side effects and/or toxicity. The compounds of the present invention were selected from compounds generically disclosed in WO 98/07433 and co-pending U.S. patent application, Ser. No. 08/914566, on the basis of an unexpected and unpredictable selectivity index (see Table I and II). […] Simple changes in the substitution of the sugar portion or the indolopyrrolocarbazole portion of the present invention will change the selectivity. This change in selectivity is not predictable by one skilled in the art.
# as §1
# as §2, with “control cells. […]” for “control cells.”
# [2] = target: purified human topoisomerase I (Homo sapiens, UniProt P11387); experiment: Topoisomerase I-mediated single strand DNA break induction (in vitro); details: read-out: Topo I EC50; median effect concentration for inducing single-strand breaks in the DNA substrate
# Method: Topoisomerase I activity was measured as described below. The procedure for assaying compound-induced, topoisomerase I-mediated single strand breaks in DNA was essentially that described by Hsiang, et al., (J. Biol. Chem. 1985, 260, 14873-14878). Samples dissolved in 100% DMSO as either […] or 10 mg/ml solutions, unless otherwise stated, were diluted in Tris-EDTA buffer. Marine bacteriophage PM2 DNA (Boehringer Mannheim) was also diluted in Tris-EDTA buffer to a concentration of 0.02 μg/μl. Different dilutions of the compound being evaluated were mixed with diluted DNA and this mixture was added to […] (one unit of enzyme activity is defined as the amount capable of relaxing 100 ng of supercoiled DNA in approximately 30 minutes at 37° C.) aliquots of purified human topoisomerase I (Topogen) in 2X reaction buffer to start the reaction. The compound-DNA-enzyme mixture was incubated for 30 minutes at 37° C. before stopping the reaction with warm stop buffer containing sodium dodecyl sulfate and proteinase K (Sigma). These mixtures were allowed to incubate at 37° C. for another 10 minutes, at which time the mixtures were removed from the waterbath and extracted with a 24:1 mixture of chloroform/isoamyl alcohol. Following centrifugation, aliquots of the aqueous phases were placed in wells of a 0.9% agarose (SeaKem) gel in Tris-borate buffer containing 0.5 μg/ml of ethidium bromide and subjected to electrophoresis for 15 hours to separate the different topological isomers and nicked and broken DNAs. After destaining the gel in water, the ethidium bromide stained DNA reaction products were visualized by exposing the gel to UV irradiation. Negatives of the photographs of the irradiated gels were scanned with a densitometer and areas under the peaks were calculated in order to obtain percent single strand DNA break formation for each sample. A median effective concentration (EC50) was obtained for each compound by interpolation between points of the resulting dose-effect curve which defines the potency of the compound for its effect in inducing topoisomerase I-mediated single strand breaks in DNA. The topoisomerase I activities for certain compounds of the present invention are shown below in Table I.
compound,measurement,setting,value
O=C1NC(=O)c2c1c1c3ccc(F)cc3[nH]c1c1c2c2ccc(F)cc2n1[C@@H]1O[C@H](CO)[C@@H](O)[C@H](O)C1=O,IC50,[1],127 nM
same,Selectivity Index R/S,P388/CPT45 cells,29.3
same,EC50,[2],280 nM
NC[C@H]1O[C@@H](n2c3ccc(F)cc3c3c4c(c5c6cc(F)ccc6oc5c32)C(=O)NC4=O)[C@H](O)[C@@H](O)[C@@H]1O,IC50,[1],1780 nM
same,Selectivity Index R/S,P388/CPT45 cells,5.5
same,EC50,[2],30 nM
O=C1NC(=O)c2c1c1c3cc(F)ccc3[nH]c1c1c2c2cc(F)ccc2n1[C@@H]1O[C@H](CF)[C@H](F)[C@H](O)[C@H]1O,IC50,[1],18 nM
same,Selectivity Index R/S,P388/CPT45 cells,108
same,EC50,[2],60 nM
O=C1NC(=O)c2c1c1c3cc(Br)ccc3oc1c1c2c2cc(F)ccc2n1[C@@H]1O[C@H](CO)[C@@H](O)[C@H](O)[C@H]1O,IC50,[1],47 nM
same,Selectivity Index R/S,P388/CPT45 cells,177
same,EC50,[2],50 nM
